For data set [1], the target named is T1, SERT (Rattus norvegicus, UniProt P31652). Kind of data set: Inhibition of [3H]citalopram binding to SERT.
The subject of data set [2] is NET. The data set can be described thus: Inhibition of [3H]nisoxetine binding to NET. More on the design: species or system rat.
For data set [3], the target named is NET (Rattus norvegicus, UniProt Q9WTR4). Kind of data set: Inhibition of [3H]nisoxetine binding to NET.
The target in data set [4] is T1, SERT. The data set can be described thus: SERT uptake inhibition, [3H]5-HT. The format is biochemical.
Data set [5] deals with NET (Rattus norvegicus). Kind of data set: NET uptake inhibition, [3H]NE. Format: biochemical.
For data set [6], the target named is T2, DAT (Rattus norvegicus, UniProt P23977). The data set can be described thus: Inhibition of [3H]WIN 35,428 binding to DAT.
Data set [7] has as its target T2, DAT. Kind of data set: Inhibition of [3H]DA uptake by DAT into rat striatal synaptosomes. Format: biochemical.
Data set [8] deals with NET (Rattus norvegicus, UniProt Q63380). The data set can be described thus: NET uptake inhibition, [3H]NE. The format is biochemical.
Data set [9] has as its target T2, DAT. The settings on record: read-out: DAT binding, IC50, [3H]Win 35,428; Table 2; values marked b: See reference # 22; cited from earlier work.
Where [10] appears, read: read-out: NET binding, IC50 [3H]nisoxetine, Table 2, average ± SEM.

By UniProt entry, the sequences of proteins in these tests, tags left out. Residues count along the entry.
UniProt P31652, whole entry: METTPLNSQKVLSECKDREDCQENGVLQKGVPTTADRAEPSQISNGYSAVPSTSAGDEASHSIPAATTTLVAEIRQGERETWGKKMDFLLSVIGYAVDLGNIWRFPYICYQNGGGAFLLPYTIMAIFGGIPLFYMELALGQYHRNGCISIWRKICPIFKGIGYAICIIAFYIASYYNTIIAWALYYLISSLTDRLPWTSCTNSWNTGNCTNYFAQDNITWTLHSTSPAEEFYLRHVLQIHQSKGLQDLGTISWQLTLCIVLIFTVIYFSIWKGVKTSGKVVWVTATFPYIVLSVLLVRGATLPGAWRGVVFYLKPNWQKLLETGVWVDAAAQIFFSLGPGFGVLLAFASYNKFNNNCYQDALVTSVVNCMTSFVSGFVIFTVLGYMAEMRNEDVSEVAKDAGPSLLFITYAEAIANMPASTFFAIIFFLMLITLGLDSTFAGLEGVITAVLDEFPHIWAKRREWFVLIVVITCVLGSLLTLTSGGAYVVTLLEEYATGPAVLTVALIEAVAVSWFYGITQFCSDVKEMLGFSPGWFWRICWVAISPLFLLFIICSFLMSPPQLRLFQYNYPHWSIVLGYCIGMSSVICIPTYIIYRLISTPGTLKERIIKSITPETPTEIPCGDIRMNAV
UniProt P23977, whole entry: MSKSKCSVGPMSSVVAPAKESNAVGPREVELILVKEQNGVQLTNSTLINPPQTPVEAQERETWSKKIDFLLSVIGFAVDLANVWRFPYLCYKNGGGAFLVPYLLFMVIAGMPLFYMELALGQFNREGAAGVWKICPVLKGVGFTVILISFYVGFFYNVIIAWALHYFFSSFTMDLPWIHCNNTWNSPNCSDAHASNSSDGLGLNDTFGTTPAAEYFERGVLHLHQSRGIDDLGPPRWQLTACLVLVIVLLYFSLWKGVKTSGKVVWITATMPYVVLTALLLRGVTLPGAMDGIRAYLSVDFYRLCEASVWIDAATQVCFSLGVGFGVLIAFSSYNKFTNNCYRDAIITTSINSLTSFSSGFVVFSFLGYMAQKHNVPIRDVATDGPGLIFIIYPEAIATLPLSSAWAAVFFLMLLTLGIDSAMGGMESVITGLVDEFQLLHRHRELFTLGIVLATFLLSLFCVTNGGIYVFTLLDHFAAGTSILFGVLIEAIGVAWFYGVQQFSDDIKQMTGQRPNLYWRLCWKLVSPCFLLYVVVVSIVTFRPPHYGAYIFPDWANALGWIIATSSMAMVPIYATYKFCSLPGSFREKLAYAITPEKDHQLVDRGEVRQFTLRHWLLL
UniProt Q63380, 1-617: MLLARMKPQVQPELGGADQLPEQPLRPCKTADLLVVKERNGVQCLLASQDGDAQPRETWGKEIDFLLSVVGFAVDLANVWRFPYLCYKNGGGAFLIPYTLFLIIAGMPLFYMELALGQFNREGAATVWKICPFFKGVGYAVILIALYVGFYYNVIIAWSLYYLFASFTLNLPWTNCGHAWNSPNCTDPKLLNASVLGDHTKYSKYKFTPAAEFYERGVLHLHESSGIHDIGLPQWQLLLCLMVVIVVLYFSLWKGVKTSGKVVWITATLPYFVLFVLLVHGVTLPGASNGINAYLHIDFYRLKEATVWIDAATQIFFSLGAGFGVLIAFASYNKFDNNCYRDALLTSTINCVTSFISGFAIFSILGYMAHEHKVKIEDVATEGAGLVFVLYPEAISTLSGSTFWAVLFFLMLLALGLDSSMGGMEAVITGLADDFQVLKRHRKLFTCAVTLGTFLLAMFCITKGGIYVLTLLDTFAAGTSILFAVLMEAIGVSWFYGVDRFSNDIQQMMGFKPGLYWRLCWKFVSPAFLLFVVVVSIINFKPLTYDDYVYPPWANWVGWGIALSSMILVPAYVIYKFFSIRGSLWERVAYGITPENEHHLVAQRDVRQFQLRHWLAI

Entries after “also recorded” stand apart in the source; their conditions may differ. Where a name gives a salt, the structure may show the parent alone. Read-outs that look alike come from different tables or passages of the source.

Turning to `Oc1ccc(CN[C@H]2CC[C@@H](C(c3ccccc3)c3ccccc3)OC2)cc1` (relative stereo) [Compound 16h, Cis-(6-benzhydryl-tetrahydropyran-3-yl)-(4-hydroxy-benzyl)-amine], the “SERT binding/DAT binding” value in data set [1] (Table 3, selectivity ratio of IC50 values) was 5.1. In data set [2], the “NET binding/DAT binding” value is 0.29 and the NET/DAT came to 0.29. The IC50 in [3] (read-out: IC50 for the NET) turned out to be 22.6 nM.

In the case of `COC(=O)[C@H]1[C@@H](OC(=O)c2ccccc2)C[C@@H]2CC[C@H]1N2C` [Cocaine, reference compound], the IC50 in data set [3] (read-out: NET binding, IC50 [3H]nisoxetine) worked out at 3130 nM.

On to `COc1ccc(CN[C@H]2CC[C@@H](C(c3ccccc3)c3ccccc3)OC2)cc1` (relative stereo) [Compound 16e, Cis-(6-benzhydryl-tetrahydropyran-3-yl)-(4-methoxy-benzyl)-amine], for which the IC50 in data set [1] came to 1180 nM; in data set [3] (setting [10]) it was 1550 nM. For the same compound, the “SERT binding/DAT binding” value in data set [1] is recorded as 14. Besides, the “NET binding/DAT binding” value in data set [2] stood at 18.5.

Consider `O[C@@H]1C[C@@H](C(c2ccccc2)c2ccccc2)OC[C@H]1NCc1ccc2[nH]ccc2c1` [(−)-32b, (2S,4R,5R)-2-benzhydryl-5-[(1H-indol-5-ylmethyl)-amino]-tetrahydropyran-4-ol], for which the IC50 stood at 18.7 ± 1.6 nM in [4] and 2.42 ± 0.47 nM in data set [5].

`Nc1ccc(CN[C@H]2CC[C@@H](C(c3ccccc3)c3ccccc3)OC2)cc1` (relative stereo) [Compound 16o, Cis-(6-benzhydryl-tetrahydropyran-3-yl)-(4-amino-benzyl)-amine]: the IC50 in data set [6] came out at 151 ± 13 nM; in [1] it was 1690 ± 169 nM; in data set [3] (setting [10]), 123 ± 10 nM; in data set [7] it was 155 ± 14 nM. Also, in data set [1], the “SERT binding/DAT binding” value is 11.19. The “NET binding/DAT binding” value in data set [2] was 0.81.

With `O=[N+]([O-])c1ccc(CN[C@H]2CC[C@@H](C(c3ccccc3)c3ccccc3)OC2)cc1` (relative stereo) [Compound 16d, Cis-(6-benzhydryl-tetrahydropyran-3-yl)-(4-nitro-benzyl)-amine], the IC50 in data set [1] was 738 ± 164 nM; in data set [3] (setting [10]), 968 ± 98 nM. The “SERT binding/DAT binding” value in [1] amounted to 19.3. For the same compound, the “NET binding/DAT binding” value in data set [2] is listed as 25.3.

In the case of `Oc1ccc(CN[C@@H]2CC[C@H](C(c3ccccc3)c3ccccc3)OC2)cc1` [(+)-37a, cis-(3R,6R)-(6-benzhydryl-tetrahydropyran-3-yl)-(4-hydroxy-benzyl)-amine], the midpoint of inhibition in data set [5], the IC50, lay at 45.6 ± 6 nM. Moreover, the “selectivity for the NET (NRI profile), in words” value in data set [8] is “more selective for the NET; also recorded: selective blockers for NET”.

Turning to `Nc1ccc(CN[C@H]2CC[C@@H](C(c3ccccc3)c3ccccc3)OC2)cc1` (relative stereo) (as salt: oxalate) [Compound 16o, Cis-(6-benzhydryl-tetrahydropyran-3-yl)-(4-amino-benzyl)-amine], the melting point is 151 to 153 °C.

On to `O[C@H]1C[C@H](C(c2ccccc2)c2ccccc2)OC[C@@H]1NCc1ccc2[nH]ccc2c1` [(+)-32b, (2R,4S,5S)-2-benzhydryl-5-[(1H-indol-5-ylmethyl)-amino]-tetrahydropyran-4-ol], for which the IC50 came out at 272 ± 55 nM in [4] and 15 ± 4.5 nM in data set [5].

As for `COc1ccc(CN[C@@H]2CO[C@H](C(c3ccccc3)c3ccccc3)C[C@H]2O)cc1` [(−)-29a, (2S,4R,5R)-2-benzhydryl-5-(4-methoxy-benzylamino)-tetrahydropyran-4-ol], the IC50 was 226 ± 40 nM in data set [6] (read-out: DAT binding, IC50, [3H]Win 35,428); 28.9 ± 4.1 nM in data set [4] (read-out: SERT uptake, IC50 [3H]5-HT, Table 4, rat brain); 17.7 ± 5.9 nM in [5]; 155 ± 16 nM in [7] (read-out: DAT uptake, IC50 [3H]DA, Table 4, rat brain).

For the compound `N#Cc1ccc(CN[C@H]2CC[C@@H](C(c3ccccc3)c3ccccc3)OC2)cc1` (relative stereo) [Compound 16c, Cis-(6-benzhydryl-tetrahydropyran-3-yl)-(4-cyano-benzyl)-amine], in [9], the IC50 is 52.6 nM.

Regarding `O[C@@H]1C[C@@H](C(c2ccccc2)c2ccccc2)OC[C@H]1NCc1ccccc1` [(−)-29d, (2S,4R,5R)-2-benzhydryl-5-benzylamino-tetrahydro-pyran 4-ol], the concentration for half-maximal inhibition (IC50) worked out at 1860 ± 710 nM in data set [6] and 5.59 ± 1.05 nM in data set [5]. In data set [8], the “selectivity for the NET (NRI profile), in words” value is “more selective for the NET; also recorded: selective blockers for NET”.

Consider `COc1ccc(CN[C@H]2CO[C@@H](C(c3ccccc3)c3ccccc3)C[C@@H]2O)cc1` [(+)-29a, (2R,4S,5S)-2-benzhydryl-5-(4-methoxy-benzylamino)-tetrahydro-pyran-4-ol], for which the IC50 in data set [6] turned out to be 182 ± 11 nM; in [4], 745 ± 30 nM; in data set [5] it was 445 ± 39 nM; in data set [7], 148 ± 22 nM.

Consider `Oc1ccc(CN[C@H]2CC[C@@H](C(c3ccccc3)c3ccccc3)OC2)cc1` [(−)-37a, cis-(3S,6S)-(6-benzhydryl-tetrahydropyran-3-yl)-(4-hydroxy-benzyl)-amine], for which inhibition in [5] was half-maximal at 5.5 ± 0.1 nM (IC50).

The values are drawn from patent US8017791B2 (dated 2011).
